From US9784740B2 (priority 2013, dated 2017)
Values joined by “and” are separate entries in the source; they are usually repeats but may differ in a detail not shown here. Equal entries are not always repeated.

The chains behind the UniProt entries cited, without tags or fusion partners.
UniProt P33535, whole entry: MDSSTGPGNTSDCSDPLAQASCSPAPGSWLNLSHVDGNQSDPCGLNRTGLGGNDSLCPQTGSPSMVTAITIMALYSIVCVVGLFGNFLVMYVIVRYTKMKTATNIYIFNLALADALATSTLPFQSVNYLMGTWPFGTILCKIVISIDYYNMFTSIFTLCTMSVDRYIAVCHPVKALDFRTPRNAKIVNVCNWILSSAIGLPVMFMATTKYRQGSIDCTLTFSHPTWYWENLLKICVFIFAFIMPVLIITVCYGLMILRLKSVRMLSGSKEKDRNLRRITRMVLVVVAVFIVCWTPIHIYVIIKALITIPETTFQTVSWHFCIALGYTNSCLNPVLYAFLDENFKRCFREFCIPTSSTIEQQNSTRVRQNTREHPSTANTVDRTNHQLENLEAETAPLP

How the values were obtained:
[1] = target: T1, mu-opioid receptor (C6mu membranes) (Rattus norvegicus, UniProt P33535); assay: [35S]GTPγS binding in C6mu cell membranes; type: biochemical; settings: DAMGO EC50 to stimulate [35S]GTPγS binding, alone, vehicle, mean (95% CI)
T1 construct: expressed in transfected cells; host or cells: C6 glioma cells (membranes)

[2] = target: T1, mu-opioid receptor (C6mu membranes); assay: DAMGO competition binding with [3H]diprenorphine in C6mu membranes; settings: 0.2-0.3 nM [3H]diprenorphine, 100 mM NaCl, 10 uM GTPγS, vehicle

C[C@@H](NC(=O)[C@@H](N)Cc1ccc(O)cc1)C(=O)NCC(=O)N(C)[C@@H](Cc1ccccc1)C(=O)NCCO [DAMGO, reference compound]
EC50 [1]: 222 nM and 224 nM
Ki [2]: 340 nM
